The values below come from ChEMBL document CHEMBL4229384, “Success stories of natural product-based hybrid molecules for multi-factorial diseases” (Eur J Med Chem, 2018).

Amino acid sequences for entries named in this document (tags omitted). A change or cut given only in a name is not applied to a line headed by its entry.
UniProt O42275: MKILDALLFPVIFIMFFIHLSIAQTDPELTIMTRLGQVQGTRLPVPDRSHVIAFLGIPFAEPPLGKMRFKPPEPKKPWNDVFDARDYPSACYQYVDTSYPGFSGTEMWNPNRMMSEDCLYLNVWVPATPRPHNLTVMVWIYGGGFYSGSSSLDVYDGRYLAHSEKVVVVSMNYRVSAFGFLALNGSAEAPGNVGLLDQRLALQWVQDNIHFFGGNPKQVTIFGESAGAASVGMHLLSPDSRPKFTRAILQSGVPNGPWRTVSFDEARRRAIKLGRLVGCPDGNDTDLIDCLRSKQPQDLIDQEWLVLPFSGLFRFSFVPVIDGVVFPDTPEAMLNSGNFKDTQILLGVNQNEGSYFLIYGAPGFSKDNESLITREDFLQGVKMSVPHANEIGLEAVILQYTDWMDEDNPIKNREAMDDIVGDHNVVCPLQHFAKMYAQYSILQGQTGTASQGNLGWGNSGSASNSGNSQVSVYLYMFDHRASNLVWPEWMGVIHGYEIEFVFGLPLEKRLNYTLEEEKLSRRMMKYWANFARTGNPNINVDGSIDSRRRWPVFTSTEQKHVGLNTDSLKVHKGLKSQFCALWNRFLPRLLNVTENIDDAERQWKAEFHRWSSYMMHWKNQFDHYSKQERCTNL

This test has as its target Acetylcholinesterase (Electrophorus electricus, UniProt O42275). In words: Inhibition of electric eel AChE.

What is called IC50 is the concentration that gives 50% inhibition. Low values mean greater potency, high ones weaker potency. For the compound `COc1ccc2c3c1O[C@H]1C[C@@H](O)C=C[C@]31CC[N+](CCCCCCCCN1C(=O)c3ccccc3C1=O)=C2`, the half-inhibitory concentration (IC50) came to 10 nM.
